Values quoted from earlier work as cited in patent publication US20170003257A1, “WETNESS INDICATOR WITH TWO COLORANTS AND TWO STABILIZERS” (The Procter & Gamble Company, priority 2015, published 2017).

Settings: Table 2 stabilizers, first pKa

Structure (SMILES): C1CN1
- pKa (1): 8
